LGR2 inh: inhibitors of bursicon-induced LGR2 CRE-luciferase signal, primary screen, cell-based, HEK293, CRE-luciferase reporter, bursicon stimulation; Drosophila bursicon receptor LGR2 (rickets); bursicon-stimulated, 4 h; inhibition, % at 9.99 µM; 380,000 tested, 0.35% active; AID 720647, 2013;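 active = drop in luminescence signal, shown as inhibition above about 50% in the replicate tests, limit read from the data, passing the limit was not always enough; inconclusive = probably only some replicates passing the limit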;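 note: agonist challenge used bursicon conditioned medium at about half maximal strength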
EWS-Fli block: EWS/Fli-driven NR0B1 reporter inhibitors, primary screen, A673 cells, NR0B1 luciferase, luminescence, MLPCN library; 350,000 tested, 0.67% active; inhibition, % at 12.6 µM; viability-normalised;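 active = mean inhibition of at least 50% after viability correction, with every replicate also passing that limit; inconclusive = mean reaches 50% but only one of two replicates passes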;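 note: firefly luciferase signal divided by Alamar Blue viability fluorescence both relative to DMSO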
PglD DTNB: C. jejuni PglD acetyltransferase inhibitors, primary screen, biochemical, DTNB colorimetric, single point; UDP-N-acetylbacillosamine N-acetyltransferase PglD (Campylobacter jejuni); purified PglD enzyme, DTNB colorimetric CoA detection; inhibition, % at 12.5 µM; 360,000 tested, 0.098% active; in the data active = inhibition above about 16%, passing the limit was not always enough; inconclusive = no clear call, values can overlap the other calls
miR122 inh: miR-122 Renilla sensor signal increase in Huh7, primary screen, miR-122 inhibitor project, cell-based, single point, plate reader. Huh7 miR-122 Renilla luciferase sensor, 48 h; neutral wells = 0, positive control = 100. activation (reporter increase), % at 12.5 µM. 340,000 tested, 0.3% active. AID 602342, 2012;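 active = mean replicate activation score at least 90 and every replicate individually at or above 90; inconclusive = only one of the two criteria met; inactive = neither criterion met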;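 note: higher luciferase means less miR-122 activity so hits act as miR-122 inhibitors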
F508del corr: F508del CFTR correction, initial screen, CFBE line, single point; activity (quench increase), % at 7.58 µM; 350,000 tested, 0.36% active; CFBE cells, YFP halide quenching; stimulated with forskolin plus potentiator P3; % fluorescence drop versus neutral controls;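 active = mean added fluorescence quench of at least 8% versus neutral control, with both replicates also reaching 8%; inconclusive = only one of the mean or replicate conditions met; inactive = mean below 8% and not both replicates reaching 8%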;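 note: cells transiently co-express mutant CFTR-F508del with the halide-sensitive YFP; corrector assay measuring rescue of mutant channel to the surface after 24 h compound exposure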
Yeast UUG start: modulators of yeast start codon fidelity, primary screen, whole organism, S. cerevisiae, single point, plate reader. S. cerevisiae UUG-firefly luciferase reporter, luminescence/redox ratio. activity score, % at 18.7 µM. actives 0.13% (n = 350,000);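 active = replicate mean at a twofold rise or more, about +100% in these data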;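 note: firefly luciferase made from a UUG start codon reports start codon fidelity; reporter light over untreated wells divided by growth signal over untreated wells; some hits fall short of that in this replicate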
DNA binding: DNA binders by acridine orange displacement, dose response, counter-screen for EWS/Fli inhibitor project, biochemical, fluorescence polarization, cherry-pick | shares compounds with EWS-Fli block | salmon sperm DNA acridine orange fluorescence polarization | AC35, µM (highest dose often 68 µM) | 640 tested, 2% active | AID 720586, 2013;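 active = fitted curve reaches a 35% signal fall AC35 below twice the sample's top valid tested dose, actives reach about 48 µM in these data; inactive = the rest, including activity in the rising direction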;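 note: lower polarization ratio signals compound binding to DNA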
Large screens that a line does not name were inactive (follow-up assays come after a bar, where they were run); [ ] = dose if it differs, or a comment. An excerpt weighted towards active compounds, which were near 1.3% of everything screened.

COc1ccccc1N1CCN(C2CCN(C(=O)c3ccc(F)cc3)CC2)CC1	none (no result: F508del corr)
COc1cc(C(=O)N2CCC(N3CCN(C)CC3)CC2)ccc1Nc1ncc2c(n1)N(C)c1ccccc1C(=O)N2C	EWS-Fli block 59 (no result: PglD DTNB, miR122 inh, Yeast UUG start) | DNA binding inactive
CCOc1cc(N2CCC(O)CC2)ccc1Nc1ncc2c(n1)N(C)c1ccccc1C(=O)N2C	EWS-Fli block 55 (no result: PglD DTNB, miR122 inh, Yeast UUG start) | DNA binding inactive
COc1cc(N2CCC(O)CC2)ccc1Nc1nnc(Cl)c(Nc2ccccc2S(C)(=O)=O)n1	none (no result: LGR2 inh, EWS-Fli block, F508del corr)
CCNCc1cc([N+](=O)[O-])ccc1OCC	none (no result: PglD DTNB, Yeast UUG start)
CCOc1ccc2nc(NC3=NC(c4ccc(OC)cc4)CC(=O)N3)nc(C)c2c1 (configuration not stated)	EWS-Fli block 57 (no result: PglD DTNB, miR122 inh, Yeast UUG start) | DNA binding inactive
COc1ccc(/C=C/C(=O)c2ccc(C(=O)/C=C/c3ccc(OC)c(OC)c3)cc2)cc1OC	EWS-Fli block 62 | DNA binding inactive
COC(=O)c1ccc(/C=C/C(=O)c2ccc(OC)c(OC)c2)cc1	none (no result: LGR2 inh, EWS-Fli block, F508del corr)
COc1ccc(/C=C/C(=O)c2cc(F)ccc2OC(=O)c2ccccc2OC)cc1OC	LGR2 inh inconclusive, EWS-Fli block 59 (no result: PglD DTNB, miR122 inh, Yeast UUG start) | DNA binding inactive
CN(C)c1ccc2c(c1)[C@@H]1C[C@@H](CC(=O)NCc3ccc(Oc4ccccc4)cc3)O[C@H](CO)[C@@H]1O2	EWS-Fli block 52, F508del corr 17 (no result: LGR2 inh, Yeast UUG start) | DNA binding inactive
O=C(C[C@H]1C[C@H]2c3cc(NS(=O)(=O)c4ccc(F)cc4)ccc3O[C@H]2[C@H](CO)O1)NCc1ccc(Oc2ccccc2)cc1	EWS-Fli block 54 (no result: Yeast UUG start) | DNA binding inactive
CN(C)c1ccc2c(c1)[C@@H]1C[C@H](CC(=O)NCc3ccc(Oc4ccccc4)cc3)O[C@@H](CO)[C@@H]1O2	none (no result: LGR2 inh, Yeast UUG start)
COc1cccc(CNC(=O)C2CCN(S(=O)(=O)c3ccc4c(c3)NC(=O)CO4)CC2)c1	none
COc1ccc2nc(-c3ccc(F)cc3)sc2c1	LGR2 inh 92, EWS-Fli block 55 (no result: miR122 inh) | DNA binding inactive
COC(=O)C[C@@H]1CC[C@@H]2[C@H](COc3ccc(NC(=O)Nc4cccc(Cl)c4)cc3C(=O)N2C)O1	EWS-Fli block 59 | DNA binding inactive
COC(=O)C[C@@H]1CC[C@@H]2[C@H](COc3ccc(NC(=O)c4cccc(Cl)c4)cc3C(=O)N2C)O1	EWS-Fli block 69 (no result: miR122 inh, F508del corr, Yeast UUG start) | DNA binding inactive
C(=Cc1nc2ccccc2o1)c1ccc2c(c1)OCO2	LGR2 inh 81, EWS-Fli block 69 | DNA binding inactive
C(=Cc1cnc2ccccc2n1)c1ccc2c(c1)OCO2	LGR2 inh 99, EWS-Fli block 88 | DNA binding inactive
C=CCn1c(O)c(N=Nc2ccccc2)c2ccccc21	EWS-Fli block 55 | DNA binding inactive
CCCN1C(=O)/C(=C/c2nc3ccccc3c(=O)[nH]2)c2ccccc21	EWS-Fli block 84 (no result: PglD DTNB, miR122 inh, F508del corr, Yeast UUG start) | DNA binding inactive
CCN(Cc1nc(-c2cccc(Cl)c2)no1)CC1CCCO1 (configuration not stated)	none (no result: PglD DTNB, Yeast UUG start)
CCCCCCOc1ccc(C(=O)NCCCn2ccnc2)cc1	none (no result: LGR2 inh, PglD DTNB, miR122 inh, Yeast UUG start)
CCCCOc1ccc(NC(=O)C(=O)NCCCn2ccnc2)cc1	EWS-Fli block 78 (no result: PglD DTNB, miR122 inh, F508del corr, Yeast UUG start) | DNA binding inactive
C[C@H]1CN([C@@H](C)CO)C(=O)Cc2cc(NC(=O)CCC(F)(F)F)ccc2O[C@@H]1CN(C)Cc1ccc(C(=O)Nc2ccccc2N)cc1	none (no result: PglD DTNB, miR122 inh, Yeast UUG start)
C[C@H](CO)N1C[C@H](C)[C@H](CN(C)Cc2ccc(C(=O)Nc3ccccc3N)cc2)Oc2ccc(NC(=O)C3CC3)cc2CC1=O	EWS-Fli block 64, miR122 inh 165[16.7 µM] | DNA binding inactive

Source: PubChem BioAssay (Broad Institute)
